Results on two compounds are retold here after PubChem BioAssay AID588350 (The Scripps Research Institute Molecular Screening Center, 2011).

The entries are a selection whose mix differs from that of the whole data set. Calls of active or inactive are those of the source.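 The calls were made as follows: active = mean activation above the mean of solvent-only control wells plus 3 SD (cut at about 22% in these data); inactive = the rest.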

This assay is described as follows: frataxin GAA30 reporter activation – cell-based, luminescence, HEK293, lucGAA30, triplicate, counter-screen for GAA850 frataxin promoter activator project, confirmation (AID 588350).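 Also: counterscreen of GAA850 promoter hits where activity marks nonselective or luminescence artifacts.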 As to conditions: HEK293 lucGAA30 FXN promoter luciferase, 24 h; at 6 µM; stronger effect = higher value; DMSO = 0%, 5 µM ipriflavone = 100%. For orientation: The purpose of a counterscreen is to sort out artefacts and off-target activity.
Take `CC(=O)NC(SC(=S)N(C)C)C(Cl)(Cl)Cl` (configuration not stated): the activation is active: 27.9%. The result for `CCc1nc2c(n1)c1c(non1O)c1c2no[n+]1[O-]` reads active: 44.7%.
